Nrf2 block: blocks Nrf2 signaling; Potency, µM (top dose mostly 46 µM), hits mostly inhibitors; A549 ARE-Fluc reporter, luciferase luminescence, 18-24 h; actives 2.1% (n = 360,000); AID 504444; also: nearly all actives have a fitted effect of over 60% in size
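Two sequential reads on A549 ARE_Fluc cells exposed to compound for 18-24 h: a CellTiter-Fluor fluorescence read for viability, then a luciferase luminescence read for Nrf2/ARE activity.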
PTAP TSG101 blk: blocks PTAP/TSG101 interaction to inhibit HIV-1 budding; Potency, µM (series often up to 115 µM), actives largely listed as inhibitors; Fluorescence polarization, FITC-PTAP peptide / Tsg101 binding; AID 493005; Q99816; 340,000 tested, under 10 active; active = well fitted inhibition curve with a large enough effect in the main read-out, with a control signal flat, not every such curve was filed as active; inconclusive = small, poorly fitted or top-dose-only effect, or effect the other way, or a change in a side signal; inactive = no such curve, though single readings can be large or run the other way
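Steps: Tsg101 binding domain dispensed (10 uM final), compounds pinned in DMSO, FITC-labeled PTAP-motif peptide added (50 nM final); after 20 min binding at room temperature, polarization measured.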
miR-21 reporter: raises the signal of a miR-21 reporter | HeLa miR-21 FLuc reporter, luciferase, 48 h | Potency, µM (highest dose often 38.3 µM) | 340,000 tested, under 10 active | AID 2288; active = well fitted rising curve with a large enough effect; inconclusive = small, poorly fitted or top-dose-only effect; inactive = no such curve, though single readings can be large or run the other way;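 also: miR-21 action dims this reporter so a rising signal means less miR-21 action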
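Luminescence from a firefly luciferase reporter carrying a miR-21 binding site downstream, stably expressed under a CMV promoter in HeLa cells that make miR-21 endogenously, reports miRNA modulation after 48 h compound exposure up to approximately 40uM final.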
Nrf2 activator: Nrf2 pathway activation. AREc32 ARE-luciferase reporter (MCF7-derived line), luminescence, 24 h. Potency, µM (titrated, usually from 46.1 µM), most hits filed as activators. actives 0.31% (n = 410,000). AID 624171; also: nearly all actives have a fitted effect of over 65% in size
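Reporter line AREc32 (ARE-Fluc), seeded overnight in OPTI-MEM with 5% FBS; compound pin-transferred, 24 hr at 37 deg C, 5% CO2; luminescent read-out.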
A549 tox: A549 cytotoxicity, counter-screen for Nrf2 inhibitors; A549 ARE-Fluc cells, CellTiter-Fluor viability, 18-24 h; Potency, µM (highest dose often 46 µM), usual class: inhibitors; actives 0.16% (n = 390,000); AID 504648
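A549 ARE-Fluc cells in 5% FBS OPTI-MEM, 5000 cells/well, rested 2 h then exposed to compounds in concentration-response for 18-24 h at 37 °C. Viability by CellTiter-Fluor fluorescence (Ex 405/Em 525) after 30 min; luciferase luminescence (BugLite, 15 min, RT) read afterwards.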
GRP78 ERSR act: inducers of ER stress response in human glioma cells; U87-MG GRP78 promoter luciferase reporter, 16 h; Potency, µM, hits mostly activators; actives 0.02% (n = 420,000); AID 602332; also: series mostly up to about 76 µM; nearly all actives have a fitted effect of over 35% in size
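Stably transfected U87-MG human glioma cells carrying a GRP78-based luminescent sensor were seeded at 1000 cells/well, pin-dosed with compounds and incubated 16 h. Luciferase reagent was then added, and end-point luminescence was read after 10 min at room temperature.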
Numbers stand for hits; – = inactive; ? = inconclusive; · = no result given; [ ] = dose if it differs, or a comment. Hits are enriched below; roughly 2.1% of the tested compounds scored in any of these assays. Unless noted, calls follow the shape of the dose curve; as a rule, active = well fitted curve in the direction sought with a large enough effect; inconclusive = small, poorly fitted or top-dose-only effect, or another doubt; inactive = no such curve, though single readings can be large; an effect the other way counts as inactive or inconclusive.

SMILES	Nrf2 block	PTAP TSG101 blk	miR-21 reporter	Nrf2 activator	A549 tox	GRP78 ERSR act
Cn1c(NC2=NC3(CCCC3)C3=C(CCCC3=O)N2)nc2ccccc21	–	·	·	·	–	·
COc1cccc(C(=O)N(Cc2cc3cc4c(cc3nc2N(C)C)OCO4)CC2CCCO2)c1 (configuration not stated)	·	·	·	·	·	–
Cc1ccc(S(=O)(=O)N2[C@@H](c3ccccc3)C(C(=O)O)=CC[C@H]2c2ccc3c(c2)OCO3)cc1	–	–	·	–	–	–
Cc1ccc(S(=O)(=O)N2[C@@H](c3ccc(C(C)(C)C)cc3)C(C(=O)O)=CC[C@H]2c2ccc3c(c2)OCO3)cc1	23µM	–	·	–	–	–
COc1ccc(CNC(=O)C[C@H]2C[C@H](C(=O)N3CCOCC3)[C@@]3(CCC4CCCC4)c4[nH]c5cc(-c6ccco6)ccc5c4CCN3C2=O)cc1OC	23µM	–	·	–	–	–
O=C(CC1C[C@H](C(=O)N2CCOCC2)[C@@]2(CCC3CCCC3)c3[nH]c4ccccc4c3CCN2C1=O)NCC12CC3CC(CC(C3)C1)C2 (some centres not stated)	23µM	–	·	–	?	–
CC[C@]12c3[nH]c4ccc(Cl)cc4c3CCN1C(=O)[C@@H](CC(=O)NCC13CC4CC(CC(C4)C1)C3)C[C@@H]2C(=O)N1CCN(C(=O)C2CC2)CC1	23µM	–	·	–	–	–
O=C(C[C@H]1C[C@H](C(=O)N2CCOCC2)[C@@]2(CCC3CCCC3)c3[nH]c4cc(-c5ccco5)ccc4c3CCN2C1=O)NCc1cccc(C(F)(F)F)c1	?	–	·	–	–	–
COC1=C(C)C(=O)C2=C(C1=O)C1C3CC4=C(C(=O)C(OC)=C(C)C4=O)C(CNC(=O)C(C)=O)N3C(C#N)C(C2)N1C (configuration not stated)	0.58µM	–	·	–	9.2µM	–
CC(=O)C1CCC2C3CCC4=CC(=O)CCC4(C)C3CCC12C (configuration not stated)	·	·	·	·	·	–
CC12CCC(=O)C=C1CCC1C2C(O)CC2(C)C(c3csc(N)n3)CCC12 (configuration not stated)	23µM	–	·	–	–	–
CC12CCC(=O)C=C1CCC1C2CCC2(C)C(c3csc(N)n3)CCC12 (configuration not stated)	18µM	–	·	–	?	–
CCOCc1nnc(NC(=O)c2cc(Cl)ccc2OC)s1	–	–	–	?	–	–
COCc1nnc(NC(=O)c2cc(Cl)ccc2OC)s1	–	–	–	13µM	·	–
O=C(Nc1ccc(OC(F)F)cc1)c1nc(SCc2ccccc2F)ncc1Cl	·	·	·	·	·	–
Clc1cccc(CON/C=N/c2ncnc3sccc23)c1	16µM	–	–	–	–	–
Clc1cccc(Cl)c1CON/C=N/c1ncnc2sccc12	?	–	–	–	–	–
CCC(=O)N1CCc2cc(S(=O)(=O)CCC(=O)N3CCN(c4cccc(C)c4)C(C)C3)ccc21 (configuration not stated)	21µM	·	–	–	–	–
CCC(=O)N1CCc2cc(Br)cc(S(=O)(=O)CCC(=O)N3CCN(c4cccc(C)c4)C(C)C3)c21 (configuration not stated)	–[9.27 µM]	·	–	–	?	–
Cc1ccc(C2CC(C(F)(F)F)n3nc(C(=O)NCc4c(C)nn(C)c4C)c(Cl)c3N2)cc1 (configuration not stated)	12µM	–	?	–	–	–
Cc1nn(C)cc1CN(C)C(=O)c1nn2c(c1Br)NC(c1cccs1)CC2C(F)(F)F (configuration not stated)	–	–	–	–	–	–
Cc1nn(C)c(C)c1CN(C)C(=O)c1cc2n(n1)C(C(F)(F)F)CC(c1cccs1)N2 (configuration not stated)	13µM	–	–	–	–	–
Cc1nn(C)cc1CN(C)C(=O)c1nn2c(c1Cl)NC(c1cccs1)CC2C(F)(F)F (configuration not stated)	16µM	–	–	–	–	–
CN(C)c1ccc(/C=C/c2ccnc3c(-c4ccccc4)cccc23)cc1	·	·	·	·	·	–
CN(C)c1ccc(/C=C/c2ccnc3c(Cl)cccc23)cc1	·	·	·	·	·	–
SMILES	Nrf2 block	PTAP TSG101 blk	miR-21 reporter	Nrf2 activator	A549 tox	GRP78 ERSR act
Cc1ncc(CO)c(/C=N/Nc2ccc(C(F)(F)F)cn2)c1O	10µM	–	?	–	?	–
CC[C@H]1OC(=O)[C@H](C)[C@@H](O[C@H]2C[C@@](C)(OC)[C@@H](O)[C@H](C)O2)[C@H](C)[C@@H](O[C@@H]2O[C@H](C)C[C@H](N(C)C)[C@H]2O)[C@](C)(O)C[C@H](C)C(=NOCOCCOC)[C@H](C)[C@@H](O)[C@]1(C)O	·	·	·	·	·	–
CC(=O)Nc1ccc(S(=O)(=O)NCCSCc2cccc(Cl)c2)cc1	–	–	–	–	–	–
CC(=O)Nc1ccc(S(=O)(=O)NCCSCc2c(Cl)cccc2Cl)cc1	15µM	–	–	–	–	–
Cc1c(C(=O)N2CCCC2)sc2ncnc(NCCCN3CCOCC3)c12	·	·	·	·	·	–
CCN(Cc1ccccc1)C(=O)c1sc2nc3n(c(=O)c2c1C)CCCC3	23µM	·	–	–	–	–
Cc1ncc2c(c1CNS(=O)(=O)N(C)C)CCN(C(=O)/C=C/c1ccccc1Cl)C2	·	·	·	·	·	–
NC(=O)C1=CN(C2OC(COP(=O)(O)OP(=O)(O)OC[C@H]3O[C@@H](n4cnc5c(N)ncnc54)[C@H](OP(=O)(O)O)[C@@H]3O)C(O)C2O)C=CC1 (some centres not stated)	·	·	·	·	·	–
O=C(Nc1ccc(Cl)cc1)Nc1ccc(Cl)c(C(F)(F)F)c1	·	·	·	·	·	–
CCSc1ncc(Cl)c(C(=O)N(Cc2ccccc2)Cc2ccco2)n1	?	·	?	–	–	·
CCCS(=O)(=O)c1ncc(Cl)c(C(=O)N(Cc2ccccc2)Cc2ccco2)n1	16µM	·	?	?	?	–
CCCSc1ncc(Cl)c(C(=O)N(Cc2ccc(Cl)cc2)Cc2ccco2)n1	21µM	·	–	–	–	·
COc1ccc(-n2nnnc2-c2cnc(N3CCCC3)nc2C(F)(F)F)cc1	18µM	–	–	–	–	–
FC(F)(F)c1nc(-c2cccs2)ncc1-c1nnnn1-c1ccc(Cl)cc1	23µM	–	?	–	?	–
CC(=O)N1CCSc2ccc(S(=O)(=O)Nc3ccccc3C)cc21	13µM	–	–	–	–	–
O=S(=O)(c1ccc2c(c1)OCCO2)N1CCN(S(=O)(=O)c2cc(F)c(Br)cc2F)CC1	–	·	·	·	–	·
O=C(Nc1cccc2ccccc12)/C(Cl)=C/c1ccccc1	·	–	–	10µM	–	–
